In IntAct's records for PubMed 16678108:

B1: FACT complex subunit POB3 (Saccharomyces cerevisiae), Q04636 (parent)
chain: MSTDFDRIYLNQSKFSGRFRIADSGLGWKISTSGGSAANQARKPFLLPATELSTVQWSRGCRGYDLKINTKNQGVIQLDGFSQDDYNLIKNDFHRRFNIQVEQREHSLRGWNWGKTDLARNEMVFALNGKPTFEIPYARINNTNLTSKNEVGIEFNIQDEEYQPAGDELVEMRFYIPGVIQTNVDENMTKKEESSNEVVPKKEDGAEGEDVQMAVEEKSMAEAFYEELKEKADIGEVAGDAIVSFQDVFFTTPRGRYDIDIYKNSIRLRGKTYEYKLQHRQIQRIVSLPKADDIHHLLVLAIEPPLRQGQTTYPFLVLQFQKDEETEVQLNLEDEDYEENYKDKLKKQYDAKTHIVLSHVLKGLTDRRVIVPGEYKSKYDQCAVSCSFKANEGYLYPLDNAFFFLTKPTLYIPFSDVSMVNISRAGQTSTSSRTFDLEVVLRSNRGSTTFANISKEEQQLLEQFLKSKNLRVKNEDREVQERLQTALGSDSDEEDINMGSAGEDDESVDEDFQVSSDNDADEVAEEFDSDAALSDAEGGSDEERPSKKPKVE

Variants of: B1
Details: with rfa1_yeast RFA1, P22336

| Variant | effect of a mutation on the interaction |
| --- | --- |
| MSTDFDRIYLNQSKFSGRFRIADSGLGWKISTSGGSAANQARKPFLLPATELSTVQWSRGCRGYDLKINTKNQGVIQLDGFSQDDYNLIKNDFHRRFNIQVEQREHSLRGWNWGKTDLARNEMVFALNGKPTFEIPYARINNTNLTSKNEVGIEFNIQDEEYQPAGDELVEMRFYIPGVIQTNVDENMTKKEESSNEVVPKKEDGAEGEDVQMAVEEKSMAEAFYEELKEKADIGEVAGDAIVSFQDVFFTTPRGRYDIDIYKNSIRLRGKTYEYKLQHRQIQRIVSLPKADDIHHLLVLAIEPPLRRGQTTYPFLVLQFQKDEETEVQLNLEDEDYEENYKDKLKKQYDAKTHIVLSHVLKGLTDRRVIVPGEYKSKYDQCAVSCSFKANEGYLYPLDNAFFFLTKPTLYIPFSDVSMVNISRAGQTSTSSRTFDLEVVLRSNRGSTTFANISKEEQQLLEQFLKSKNLRVKNEDREVQERLQTALGSDSDEEDINMGSAGEDDESVDEDFQVSSDNDADEVAEEFDSDAALSDAEGGSDEERPSKKPKVE [Q308R] | decreasing interaction |
| MSTDFDRIYLNQSKFSGRFRIADSGLGWKISTSGGSAANQARKPFLLPATELSTVQWSRGCRGYDLKINTKNQGVIQLDGFSQDDYNLIKNDFHRRFNIQVEQREHSLRGWNWGKTDLARNEMVFALNGKPTFEIPYARINNTNLTSKNEVGIEFNIQDEEYQPAGDELVEMRFYIPGVIQTNVDENMTKKEESSNEVVPKKEDGAEGEDVQMAVEEKSMAEAFYEELKEKADIGEVAGDAIVSFQDVFFTTPRGRYDIDIYKNSIRLRGKTYEYKLQHRQIQRIVSLPKADDIHHLLVLAIEPPLRKGQTTYPFLVLQFQKDEETEVQLNLEDEDYEENYKDKLKKQYDAKTHIVLSHVLKGLTDRRVIVPGEYKSKYDQCAVSCSFKANEGYLYPLDNAFFFLTKPTLYIPFSDVSMVNISRAGQTSTSSRTFDLEVVLRSNRGSTTFANISKEEQQLLEQFLKSKNLRVKNEDREVQERLQTALGSDSDEEDINMGSAGEDDESVDEDFQVSSDNDADEVAEEFDSDAALSDAEGGSDEERPSKKPKVE [Q308K] | decreasing interaction |
